# According to PubChem BioAssay AID1860 (The Scripps Research Institute Molecular Screening Center, 2009):
# Only a part is listed here, and it is no random draw. Active and inactive are the calls of the source. Cut-off read from the data, not from the text of the source: active = inhibition above about 8%; inactive = the rest.
# System: VIM-2 metallo-beta-lactamase [Pseudomonas aeruginosa]
# Assay: P. aeruginosa VIM-2 enzyme inhibition – biochemical, epi-absorbance, HTS, confirmation (AID 1860);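 note: 0% = enzyme with vehicle and 100% = no enzyme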
# Conditions: purified VIM-2 enzyme, nitrocefin absorbance; at 5.6 µM; hits give high values
compound,measurement,value
Nc1cccc2c([As](=O)(O)O)cccc12,inhibition,active: 8.66%
